Reference: patent publication US9914735B2, “Heteroaryl Syk inhibitors” (Boehringer Ingelheim International GmbH, priority 2014, dated 2018)
Read-outs that look alike come from different tables or passages of the source. One block for each molecule: values may come before it.

Sequences of proteins named here, by UniProt entry; tags and fusion partners are left off. Residues count along the entry.
UniProt P36888, 27-993: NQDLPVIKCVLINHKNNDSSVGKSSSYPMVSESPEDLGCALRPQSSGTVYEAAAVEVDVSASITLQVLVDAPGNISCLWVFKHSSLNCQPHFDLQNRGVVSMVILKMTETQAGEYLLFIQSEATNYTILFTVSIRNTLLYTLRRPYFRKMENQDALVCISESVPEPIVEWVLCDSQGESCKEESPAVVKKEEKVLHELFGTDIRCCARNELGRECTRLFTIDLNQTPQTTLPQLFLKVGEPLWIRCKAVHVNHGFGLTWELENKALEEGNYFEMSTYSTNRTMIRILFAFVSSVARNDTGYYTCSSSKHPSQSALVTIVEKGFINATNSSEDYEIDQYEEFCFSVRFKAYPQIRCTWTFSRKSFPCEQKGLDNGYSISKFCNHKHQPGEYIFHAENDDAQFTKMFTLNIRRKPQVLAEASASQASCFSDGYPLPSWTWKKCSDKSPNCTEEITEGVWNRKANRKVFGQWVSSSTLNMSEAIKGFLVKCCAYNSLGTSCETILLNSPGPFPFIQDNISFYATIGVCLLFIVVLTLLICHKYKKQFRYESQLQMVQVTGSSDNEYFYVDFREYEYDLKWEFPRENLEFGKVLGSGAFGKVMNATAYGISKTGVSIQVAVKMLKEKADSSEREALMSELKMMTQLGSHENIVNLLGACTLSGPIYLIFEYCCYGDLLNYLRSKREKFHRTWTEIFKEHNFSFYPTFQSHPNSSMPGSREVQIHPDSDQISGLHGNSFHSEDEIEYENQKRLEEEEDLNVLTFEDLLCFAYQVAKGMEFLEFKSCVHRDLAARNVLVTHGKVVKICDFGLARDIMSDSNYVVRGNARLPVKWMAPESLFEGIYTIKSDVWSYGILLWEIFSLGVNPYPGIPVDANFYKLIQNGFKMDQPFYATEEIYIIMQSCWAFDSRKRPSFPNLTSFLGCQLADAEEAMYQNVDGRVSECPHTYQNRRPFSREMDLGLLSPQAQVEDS

Tests used:
[1] = target: Recombinant human Syk (amino acids 342-635), GST-Syk kinase fusion protein (Homo sapiens (Human), UniProt P43405); test: Syk kinase test (Kinase Glo luminescence); format: biochemical
Description: The output file of the reader is a csv file that contains the well number and measured relative light units (RLU). For data evaluation and calculation, the measurement of the negative control was set as 100% ctrl and the measurement of the positive control was set as 0% ctrl. Based on this values the % value for the measurement of each substance concentration was calculated using an Assay Explorer software (Accelrys). Normally, the % ctrl values calculated are between 0% and 100% values but may also occur outside these limits in individual cases based on variability or compound characteristics. The IC50 values were calculated from the % ctrl values using Assay Explorer software. Calculation:[y=(a−d)/(1+(x/c)^b)+d] a=low value, d=high value; x=conc M; c=IC50 M; b=hill; y=% ctrl.

FLT3 = FLT3 (Homo sapiens (Human), UniProt P36888); test: FLT3 kinase test (Z'-LYTE); format: biochemical
Description: FLT3 is obtained from Invitrogen in 50 mM Tris (pH7.5); 100 mM NaCl; 0.05 mM EDTA, 0.05% NP-40, 2 mM DTT; 50% Glycerol # PV3182; Lot 286671; sequence see below). The enzyme is diluted to 720 nM (35 μg/ml) in enzyme dilution buffer and 10 μl aliquots are stored at −80° C.
The activity of FLT3 is measured using the Z′-LYTETM assay technology from Invitrogen (#PV3191)
The assay is performed in 384 black plates from Corning (#3676) in a final volume of 10 μl by adding 5 μl of kinase peptide mix and 2.5 μl of compound dilution. The reaction is started by addition of 2.5 μl of the 4×ATP solution.
Positive controls are reaction mixtures containing no test compound; negative controls (blanks) are reaction mixtures containing no kinase. As a further control, the phosphopeptide solution is added to wells without kinase (=100% phosphorylation control). The non inhibited kinase reaction will result in a phosphorylation corresponding to 20%-30% of the phosphorylation control.
The reaction is performed for 1 h at room temperature before 5 μl of the development solution is added. After a further incubation for 1 h at room temperature 5 μl of the stop reagent is added. The plates are read on a Flex Station II 384 (Molecular Devices).
To control for any potential inhibition of the protease present in the development solution, the phosphopeptide is incubated with the development solution in the presence of the highest concentration of the test compound (usually 100 μM or 10 μM).
The output text file is evaluated in an “MS-Excel—VB-Makro” and “GraphPadPrism” (Version 5) (GraphPad Software Inc.) is used to calculate the results. Data for the inhibition of FLT3 are reported in M. data for the inhibition of the protease are reported in % CTL.

[2] = Table 1, read-out: SYK-inhibition IC50-value
[3] = read-out: IC50 in μM (FLT3-Inhibition)
[4] = read-out: SYK-inhibition IC50-value
[5] = Table 1, read-out: FLT3-inhibition IC50-value

Structure (SMILES): C[C@@H](Oc1cc(-c2cscn2)cc2nn(C)cc12)[C@H]1CNC(=O)C1 [Example 29, (4R)-4-[(1R)-1-(2-methyl-6-thiazol-4-yl-indazol-4-yl)oxyethyl]pyrrolidin-2-one]
IC50 [1, 2]: 0.0492 µM

IC50 (FLT3; [3]): 0.738 µM
Structure (SMILES): COc1cc(-c2cc(O[C@H](C)[C@H]3CNC(=O)C3)c3cccnc3c2)ccc1O [11 of WO 2013/014060]

Structure (SMILES): COc1cc(-c2cc3nn(C)cc3c(O[C@H](C)[C@H]3CNC(=O)C3)n2)ccc1OC1CCOCC1 [Example 73, (4R)-4-[(1R)-1-[6-(3-Methoxy-4-tetrahydropyran-4-yloxy-phenyl)-2-methyl-pyrazolo[4,3-c]pyridin-4-yl]oxyethyl]pyrrolidin-2-one]
IC50 [1, 4]: 0.0224 µM

IC50 [1, 2]: 0.0139 µM
Structure (SMILES): COc1ccc2[nH]cc(-c3cc4nn(C)cc4c(O[C@H](C)[C@H]4CNC(=O)C4)n3)c2c1 [Example 53, (4R)-4-[(1R)-1-[6-(5-methoxy-1H-indol-3-yl)-2-methyl-pyrazolo[4,3-c]pyridin-4-yl]oxyethyl]pyrrolidin-2-one]

IC50 [1, 2]: 0.0483 µM
Structure (SMILES): C[C@@H](Oc1nc(-c2cnn(C3CCN(C)CC3)c2)cc2nn(C)cc12)[C@H]1CNC(=O)C1 [Example 82, (4R)-4-[(1R)-1-[2-Methyl-6-[1-(1-methyl-4-piperidyl)pyrazol-4-yl]pyrazolo [4,3-c]pyridin-4-yl]oxyethyl]pyrrolidin-2-one]

Structure (SMILES): C[C@@H](Oc1cc(-c2ccc(N3CCOCC3)cc2)cc2nn(C)cc12)[C@H]1CNC(=O)C1 [Example 22, (4R)-4-[(1R)-1-[2-Methyl-6-(4-morpholinophenyl)indazol-4-yl]oxyethyl]-pyrrolidin-2-one]
IC50 ([1]; read-out: IC50 in μM (SYK-Inhibition)): 0.0128 µM | IC50 [1, 4]: 0.0128 µM | IC50 (FLT3; [5]): 1.17 µM | IC50 (FLT3; [3]): 1.17 µM

Structure (SMILES): C[C@@H](Oc1cc(-c2cnn(C3CCNCC3)c2)cc2nn(C)cc12)[C@H]1CNC(=O)C1 [Example 45, (4R)-4-[(1R)-1-[2-Methyl-6-[1-(4-piperidyl)pyrazol-4-yl]indazol-4-yl]oxyethyl]pyrrolidin-2-one]
IC50 [1, 2]: 0.0147 µM | IC50 (FLT3; [5]): 2.04 µM
